According to PubChem BioAssay (NCI):
The list shows a part of the results, in another mix than the full data.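 96-well plates, one dose, 48 hours. Percent growth reported; active if below 10.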 Calls of active or inactive are those of the source.

Tests used:
Assay in all cases: NCI-60 one-dose screen, 48 h (100 = growth as untreated, 0 = no growth, -100 = all killed)
Details in all cases: 10 µM
NCI-H23 lung = system: NCI-H23 lung
NCI-H226 lung = system: NCI-H226 lung
NCI-H322M lung = system: NCI-H322M lung
HOP-62 NSCLC = system: HOP-62 NSCLC
NCI-H460 lung = system: NCI-H460 lung
HOP-92 NSCLC = system: HOP-92 NSCLC
786-0 renal = system: 786-0 renal
COLO 205 colon = system: COLO 205 colon
DU-145 prostate = system: DU-145 prostate
K-562 leukemia = system: K-562 leukemia
MALME-3M melanoma = system: MALME-3M melanoma
MDA-MB-231 breast = system: MDA-MB-231 breast
RXF 393 renal = system: RXF 393 renal
SF-268 CNS = system: SF-268 CNS
SF-295 CNS = system: SF-295 CNS
SF-539 CNS = system: SF-539 CNS
M14 melanoma = system: M14 melanoma
NCI-H522 lung = system: NCI-H522 lung
A549/ATCC NSCLC = system: A549/ATCC NSCLC
UACC-257 melanoma = system: UACC-257 melanoma

| Compound | growth (NCI-H23 lung) | growth (NCI-H226 lung) | growth (NCI-H322M lung) | growth (HOP-62 NSCLC) | growth (NCI-H460 lung) | growth (HOP-92 NSCLC) | growth (786-0 renal) | growth (COLO 205 colon) | growth (DU-145 prostate) | growth (K-562 leukemia) | growth (MALME-3M melanoma) | growth (MDA-MB-231 breast) | growth (RXF 393 renal) | growth (SF-268 CNS) | growth (SF-295 CNS) | growth (SF-539 CNS) | growth (M14 melanoma) | growth (NCI-H522 lung) | growth (A549/ATCC NSCLC) | growth (UACC-257 melanoma) |
| --- | --- | --- | --- | --- | --- | --- | --- | --- | --- | --- | --- | --- | --- | --- | --- | --- | --- | --- | --- | --- |
| CN(C)Nc1c([N+](=O)[O-])cc([N+](=O)[O-])cc1[N+](=O)[O-] | inactive: 111% | inactive: 101% | inactive: 88.6% | inactive: 108% | inactive: 107% | inactive: 127% | inactive: 105% | inactive: 96.5% | inactive: 110% | inactive: 94.3% | inactive: 90% | inactive: 114% | inactive: 108% | inactive: 105% | inactive: 110% | inactive: 108% | inactive: 102% | – | – | – |
| O=[N+]([O-])c1cc([N+](=O)[O-])c(Nc2ccc(Cl)cc2)c([N+](=O)[O-])c1 | inactive: 42.6% | inactive: 44% | inactive: 32.2% | inactive: 25.3% | active: 7.84% | – | inactive: 31.9% | active: -10.1% | inactive: 77.6% | active: 5.46% | inactive: 56% | inactive: 52.2% | inactive: 47.2% | inactive: 22.8% | – | inactive: 12.4% | inactive: 65.8% | active: -19.9% | inactive: 45.2% | inactive: 59.1% |
| CCOC(=O)CSc1c(N)c(C)nn1C.O=[N+]([O-])c1cc([N+](=O)[O-])c(O)c([N+](=O)[O-])c1 | inactive: 105% | inactive: 103% | inactive: 98.9% | inactive: 105% | inactive: 105% | inactive: 106% | inactive: 100% | inactive: 113% | inactive: 107% | inactive: 100% | inactive: 101% | inactive: 103% | – | inactive: 104% | – | inactive: 99.2% | inactive: 106% | inactive: 82.8% | inactive: 97.3% | inactive: 85% |
| N=C(N)N(N)[N+](=O)[O-] | inactive: 107% | inactive: 107% | – | inactive: 106% | inactive: 106% | – | inactive: 108% | inactive: 107% | inactive: 104% | inactive: 96.2% | – | inactive: 104% | inactive: 121% | inactive: 101% | inactive: 106% | inactive: 101% | inactive: 104% | – | inactive: 103% | inactive: 107% |
| O=[N+]([O-])OCC(O[N+](=O)[O-])C(CO[N+](=O)[O-])O[N+](=O)[O-] (centres undefined) | inactive: 99.7% | inactive: 112% | inactive: 117% | inactive: 113% | – | inactive: 114% | inactive: 113% | inactive: 122% | inactive: 114% | inactive: 101% | inactive: 114% | inactive: 125% | inactive: 118% | inactive: 105% | inactive: 121% | inactive: 103% | inactive: 108% | inactive: 102% | inactive: 117% | inactive: 131% |
| CCN(CC)CCS | inactive: 102% | inactive: 89.4% | inactive: 93.4% | inactive: 104% | inactive: 110% | inactive: 90.2% | inactive: 95.9% | inactive: 116% | inactive: 104% | inactive: 105% | inactive: 92.3% | inactive: 112% | inactive: 105% | inactive: 99.9% | – | inactive: 90.5% | inactive: 97.5% | – | inactive: 101% | inactive: 99.4% |
| CC[N+](C)(CC)Cc1cc(Cc2ccccc2)ccc1OC(=O)N(C)C | inactive: 99% | inactive: 98.9% | inactive: 99.2% | inactive: 101% | inactive: 111% | inactive: 113% | inactive: 107% | inactive: 101% | inactive: 116% | inactive: 93.3% | inactive: 97.3% | inactive: 102% | – | inactive: 103% | inactive: 98.8% | inactive: 102% | inactive: 107% | inactive: 101% | inactive: 99.8% | inactive: 109% |
| O=[N+]([O-])c1ccc(OP2(=O)COCCO2)cc1 (centres undefined) | inactive: 101% | inactive: 102% | inactive: 114% | inactive: 101% | inactive: 107% | – | inactive: 103% | inactive: 150% | inactive: 112% | inactive: 100% | inactive: 140% | inactive: 101% | inactive: 431% | inactive: 107% | inactive: 96.1% | inactive: 105% | inactive: 107% | inactive: 106% | inactive: 148% | inactive: 111% |
| Clc1ccccc1SCCBr | inactive: 99.7% | inactive: 99.8% | inactive: 104% | inactive: 103% | inactive: 100% | inactive: 92.3% | inactive: 103% | – | inactive: 103% | inactive: 110% | inactive: 96.6% | – | inactive: 106% | inactive: 96.3% | inactive: 107% | inactive: 107% | inactive: 103% | inactive: 100% | inactive: 104% | inactive: 105% |
| COc1ccccc1-c1ccccn1.O=[N+]([O-])c1cc([N+](=O)[O-])c(O)c([N+](=O)[O-])c1 | inactive: 110% | inactive: 92.1% | inactive: 95.3% | inactive: 108% | inactive: 108% | – | inactive: 101% | inactive: 117% | inactive: 111% | inactive: 107% | inactive: 107% | inactive: 101% | inactive: 96.1% | inactive: 112% | inactive: 71.5% | inactive: 93.7% | inactive: 101% | – | inactive: 102% | inactive: 105% |
| O=[N+]([O-])c1cc([N+](=O)[O-])c(C(F)(F)F)c([N+](=O)[O-])c1O | inactive: 96.6% | inactive: 87.5% | inactive: 94.5% | inactive: 102% | inactive: 107% | inactive: 85.4% | inactive: 97% | inactive: 114% | inactive: 101% | inactive: 101% | inactive: 93.7% | – | inactive: 98.2% | inactive: 95.7% | inactive: 92.1% | inactive: 92.8% | inactive: 101% | inactive: 109% | inactive: 103% | inactive: 95.6% |
| COC(=O)C(O)(c1ccccc1)c1ccccc1 | inactive: 105% | inactive: 94.7% | inactive: 106% | – | inactive: 106% | inactive: 95% | inactive: 99.7% | inactive: 103% | inactive: 110% | inactive: 118% | inactive: 98.4% | inactive: 108% | inactive: 99.9% | inactive: 113% | inactive: 95.2% | inactive: 113% | inactive: 100% | inactive: 100% | inactive: 98.2% | inactive: 101% |
| NC(=NCCN/C(N)=N/[N+](=O)[O-])N[N+](=O)[O-] | inactive: 94.5% | inactive: 105% | inactive: 113% | inactive: 82.3% | inactive: 103% | inactive: 93% | inactive: 90.1% | inactive: 110% | inactive: 106% | inactive: 105% | inactive: 127% | inactive: 113% | – | inactive: 98.2% | inactive: 91.8% | inactive: 102% | inactive: 86.8% | inactive: 85.6% | inactive: 79.4% | inactive: 85.8% |
| CCCCCCCOP(=O)(CC)OCCCCCCC | inactive: 103% | inactive: 91.1% | inactive: 99.5% | inactive: 98.3% | inactive: 102% | – | inactive: 100% | inactive: 103% | inactive: 107% | inactive: 90.2% | inactive: 99% | inactive: 93.2% | inactive: 101% | inactive: 106% | inactive: 92.4% | inactive: 99.8% | inactive: 103% | inactive: 91.3% | inactive: 101% | inactive: 94.8% |
| O=[N+]([O-])c1cc([N+](=O)[O-])c(O)c([N+](=O)[O-])c1.c1ccnnc1 | inactive: 119% | inactive: 94.6% | inactive: 106% | inactive: 106% | inactive: 102% | inactive: 114% | inactive: 101% | inactive: 112% | inactive: 116% | inactive: 104% | inactive: 99.6% | inactive: 105% | inactive: 105% | inactive: 107% | – | inactive: 91.8% | inactive: 106% | inactive: 77.7% | inactive: 101% | inactive: 102% |
| CCN(CC)CCOC(=O)C(O)(c1cc(C)cc(C)c1)c1cc(C)cc(C)c1 | inactive: 103% | inactive: 95.9% | inactive: 102% | inactive: 85.2% | inactive: 100% | inactive: 72.1% | inactive: 97.5% | – | inactive: 107% | inactive: 97.9% | inactive: 111% | inactive: 98% | inactive: 108% | inactive: 103% | inactive: 91.1% | inactive: 97.1% | inactive: 102% | inactive: 70.2% | inactive: 84.1% | inactive: 86.6% |
